Earlier results in US5688485A, “Radiolabelled complexes of ester-substituted diaminethiols” (The DuPont Merck Pharmaceutical Company, priority 1992, dated 1997).

Settings: in vivo; cited from earlier work

Substance: Tc-99m-N,N'-bis(mercaptoacetyl)ethylenediamine [Tc-99m-DADS]
- Route / rate of renal elimination: excreted by active tubular secretion
- renal extraction efficiency: about 53%
